Assay results reported in ChEMBL document CHEMBL1765070, “Structure-based design of potent and selective 3-phosphoinositide-dependent kinase-1 (PDK1) inhibitors” (J Med Chem, 2011).

Target: T1, 3-phosphoinositide-dependent protein kinase 1 (Homo sapiens, UniProt O15530)
T1 sequence (O15530 whole entry): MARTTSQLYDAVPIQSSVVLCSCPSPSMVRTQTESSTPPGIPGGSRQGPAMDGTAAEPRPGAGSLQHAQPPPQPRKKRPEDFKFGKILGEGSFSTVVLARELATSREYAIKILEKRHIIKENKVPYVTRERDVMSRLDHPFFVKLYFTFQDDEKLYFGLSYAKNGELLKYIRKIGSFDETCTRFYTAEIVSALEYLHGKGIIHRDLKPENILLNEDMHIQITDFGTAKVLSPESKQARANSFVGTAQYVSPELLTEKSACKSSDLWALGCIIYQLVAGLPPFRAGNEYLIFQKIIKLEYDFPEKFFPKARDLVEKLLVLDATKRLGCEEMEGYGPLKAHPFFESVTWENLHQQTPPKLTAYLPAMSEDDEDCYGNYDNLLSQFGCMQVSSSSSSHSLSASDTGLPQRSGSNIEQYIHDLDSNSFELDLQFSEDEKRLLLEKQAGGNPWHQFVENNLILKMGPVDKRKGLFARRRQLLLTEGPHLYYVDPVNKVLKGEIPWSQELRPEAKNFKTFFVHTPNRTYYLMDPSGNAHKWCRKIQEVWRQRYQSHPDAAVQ
Assay: Inhibition of PDK1

CCNc1cc(-c2ccc3c(N)[nH]nc3c2)nc(N)n1
IC50: 158 nM
